Sequences of proteins named here, by UniProt entry; tags and fusion partners are left off.
UniProt P35968, whole entry: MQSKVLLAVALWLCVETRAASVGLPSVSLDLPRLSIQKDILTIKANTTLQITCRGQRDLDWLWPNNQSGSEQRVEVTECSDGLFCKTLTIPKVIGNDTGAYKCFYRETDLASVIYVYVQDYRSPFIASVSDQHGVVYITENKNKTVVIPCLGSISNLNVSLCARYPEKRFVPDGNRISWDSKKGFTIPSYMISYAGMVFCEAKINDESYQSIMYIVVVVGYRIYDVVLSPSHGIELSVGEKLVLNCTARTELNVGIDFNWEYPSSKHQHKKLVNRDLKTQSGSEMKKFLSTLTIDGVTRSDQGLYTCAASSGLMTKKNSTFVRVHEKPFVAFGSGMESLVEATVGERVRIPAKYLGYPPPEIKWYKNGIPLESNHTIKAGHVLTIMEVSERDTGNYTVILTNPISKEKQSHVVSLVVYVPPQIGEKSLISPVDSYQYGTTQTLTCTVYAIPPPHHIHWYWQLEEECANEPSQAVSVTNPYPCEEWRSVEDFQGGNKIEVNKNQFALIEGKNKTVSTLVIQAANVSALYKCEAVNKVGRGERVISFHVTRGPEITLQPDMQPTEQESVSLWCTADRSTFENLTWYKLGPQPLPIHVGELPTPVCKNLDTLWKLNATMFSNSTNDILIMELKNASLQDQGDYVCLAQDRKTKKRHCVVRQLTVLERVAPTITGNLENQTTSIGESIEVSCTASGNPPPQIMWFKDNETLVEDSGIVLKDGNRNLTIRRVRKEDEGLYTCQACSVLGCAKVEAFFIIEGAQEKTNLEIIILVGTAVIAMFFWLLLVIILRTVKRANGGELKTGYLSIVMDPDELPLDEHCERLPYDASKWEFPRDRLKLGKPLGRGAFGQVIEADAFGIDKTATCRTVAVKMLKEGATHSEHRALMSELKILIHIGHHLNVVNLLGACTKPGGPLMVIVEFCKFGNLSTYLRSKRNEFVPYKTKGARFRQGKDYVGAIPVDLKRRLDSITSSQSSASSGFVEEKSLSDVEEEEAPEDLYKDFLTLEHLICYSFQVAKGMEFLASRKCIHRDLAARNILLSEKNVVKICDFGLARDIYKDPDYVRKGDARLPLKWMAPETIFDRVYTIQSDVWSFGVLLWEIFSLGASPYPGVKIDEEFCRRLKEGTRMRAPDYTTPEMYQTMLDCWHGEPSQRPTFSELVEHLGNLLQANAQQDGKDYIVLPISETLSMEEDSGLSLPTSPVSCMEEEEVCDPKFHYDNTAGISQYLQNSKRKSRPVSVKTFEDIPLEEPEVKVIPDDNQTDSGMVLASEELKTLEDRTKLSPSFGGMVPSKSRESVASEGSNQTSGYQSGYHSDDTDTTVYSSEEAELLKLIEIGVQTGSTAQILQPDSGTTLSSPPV

In ChEMBL document CHEMBL1144684, “Evaluation of a series of naphthamides as potent, orally active vascular endothelial growth factor receptor-2 tyrosine kinase inhibitors” (J Med Chem, 2008):

Biological target: Vascular endothelial growth factor receptor 2 (Homo sapiens, UniProt P35968)

IC50: 0.48 nM
Compound: COc1cc2nccc(Oc3ccc4c(C(=O)Nc5ccc(Cl)cc5)cccc4c3)c2cc1OC
